Experimental data taken from patent publication US5504116A (Research Foundation of State University of New York, priority 1994, dated 1996).

Amino acid sequences for entries named in this document (tags omitted).
UniProt P22002, whole entry: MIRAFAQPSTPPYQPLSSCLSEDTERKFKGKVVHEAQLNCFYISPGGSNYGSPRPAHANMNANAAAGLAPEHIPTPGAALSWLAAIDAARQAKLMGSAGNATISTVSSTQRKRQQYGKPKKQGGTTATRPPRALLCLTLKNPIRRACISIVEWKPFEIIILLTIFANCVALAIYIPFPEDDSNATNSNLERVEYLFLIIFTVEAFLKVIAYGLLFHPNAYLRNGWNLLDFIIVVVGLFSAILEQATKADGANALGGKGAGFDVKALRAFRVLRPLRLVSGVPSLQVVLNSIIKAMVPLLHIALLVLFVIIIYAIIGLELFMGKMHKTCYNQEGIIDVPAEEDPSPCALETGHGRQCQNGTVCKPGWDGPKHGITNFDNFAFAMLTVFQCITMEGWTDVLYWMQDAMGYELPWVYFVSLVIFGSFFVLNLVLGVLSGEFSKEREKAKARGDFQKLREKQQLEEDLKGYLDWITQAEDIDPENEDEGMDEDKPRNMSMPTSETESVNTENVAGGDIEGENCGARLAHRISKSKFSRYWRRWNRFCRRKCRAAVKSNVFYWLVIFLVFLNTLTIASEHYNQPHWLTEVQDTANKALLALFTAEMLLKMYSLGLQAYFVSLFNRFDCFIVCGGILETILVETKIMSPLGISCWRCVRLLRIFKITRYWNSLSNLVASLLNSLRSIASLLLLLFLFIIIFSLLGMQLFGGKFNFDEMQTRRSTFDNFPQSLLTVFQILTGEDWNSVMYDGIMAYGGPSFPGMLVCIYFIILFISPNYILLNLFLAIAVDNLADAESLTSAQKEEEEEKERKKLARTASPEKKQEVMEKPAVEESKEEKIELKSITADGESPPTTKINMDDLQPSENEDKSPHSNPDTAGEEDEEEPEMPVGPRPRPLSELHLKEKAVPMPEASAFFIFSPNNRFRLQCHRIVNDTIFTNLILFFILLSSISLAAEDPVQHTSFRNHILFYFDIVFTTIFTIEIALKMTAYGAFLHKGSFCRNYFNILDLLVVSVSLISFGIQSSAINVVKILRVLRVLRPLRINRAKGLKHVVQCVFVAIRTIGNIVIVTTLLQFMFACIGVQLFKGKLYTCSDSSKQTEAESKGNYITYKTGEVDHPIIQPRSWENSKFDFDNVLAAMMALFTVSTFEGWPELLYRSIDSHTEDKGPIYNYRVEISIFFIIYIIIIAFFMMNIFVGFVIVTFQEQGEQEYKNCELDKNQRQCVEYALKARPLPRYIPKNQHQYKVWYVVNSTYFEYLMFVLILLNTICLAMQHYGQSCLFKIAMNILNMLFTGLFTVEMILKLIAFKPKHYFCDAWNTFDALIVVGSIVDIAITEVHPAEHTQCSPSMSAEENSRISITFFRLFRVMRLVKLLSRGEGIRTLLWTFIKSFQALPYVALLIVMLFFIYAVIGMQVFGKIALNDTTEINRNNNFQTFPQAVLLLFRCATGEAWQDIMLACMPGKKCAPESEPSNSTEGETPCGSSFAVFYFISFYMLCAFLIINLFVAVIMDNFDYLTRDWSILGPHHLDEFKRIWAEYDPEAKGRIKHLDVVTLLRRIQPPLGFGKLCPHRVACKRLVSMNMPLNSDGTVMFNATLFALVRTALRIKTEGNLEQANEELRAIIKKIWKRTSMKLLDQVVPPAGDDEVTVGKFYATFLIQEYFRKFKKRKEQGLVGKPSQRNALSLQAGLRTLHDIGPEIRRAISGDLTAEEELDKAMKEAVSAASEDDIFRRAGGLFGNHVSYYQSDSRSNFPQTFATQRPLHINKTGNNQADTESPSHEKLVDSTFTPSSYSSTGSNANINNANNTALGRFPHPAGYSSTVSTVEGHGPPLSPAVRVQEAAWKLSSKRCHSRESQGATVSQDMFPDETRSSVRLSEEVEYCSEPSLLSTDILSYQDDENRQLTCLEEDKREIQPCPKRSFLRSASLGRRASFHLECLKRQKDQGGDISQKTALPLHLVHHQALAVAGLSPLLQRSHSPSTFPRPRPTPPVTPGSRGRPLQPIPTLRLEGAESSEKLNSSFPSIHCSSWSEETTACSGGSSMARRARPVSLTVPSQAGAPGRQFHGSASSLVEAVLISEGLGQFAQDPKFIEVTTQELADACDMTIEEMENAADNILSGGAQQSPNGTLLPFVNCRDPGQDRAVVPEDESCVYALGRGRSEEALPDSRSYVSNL

Molecular target: T1, voltage-gated calcium channel (ICa) of uterine myocytes (Rattus norvegicus, UniProt P22002)
T1 construct: Individual myocytes were freshly isolated from 14 to 21-day pregnant uteri; endogenous in cells; host or cells: freshly dissociated longitudinal myometrial myocytes of 14 to 21-day pregnant Sprague-Dawley rats
Assay: whole-cell patch clamp, inward calcium current (ICa) of freshly dissociated pregnant rat uterine myocytes
Format: cell-based
Details: recovery 6 min after 1 mM lidocaine (FIG. 2C)
Source text: Holding potential, -80 mV; depolarized by 35 ms steps from -40 mV in 10 mV increments to 30 mV. […] Traces shown represent inward currents in response to applied voltage commands, outward K^+ currents having been blocked by the use of Cs^+ -filled electrode. […] (E) Current-voltage (I--V) relations of INa in panels (A--D). Symbols correspond to those under current traces. (F) I--V relations of ICa.
Hollow symbols for I'Ca /ICa in same myocytes used for I'Na /INa values. […] P=I'Na /INa.
All experiments in this study were performed under institutional guidelines for the care and use of laboratory animals (approval #92-055). Rats (Sprague-Dawley) were mated individually in the inventors' laboratory, and the duration of gestation was timed from the morning of the first discovery of cervical plugs. […] Individual myocytes were freshly isolated from 14 to 21-day pregnant uteri. Details of the methods of isolating the myocytes in a near-physiological condition, and associated patch-clamping can be found in other publications^7,15. Briefly, strips of isolated longitudinal myometrium were incubated in collagenase, and then subjected to mild mechanical disruption, until individual myocytes in desired amounts were obtained. For the work described herein, such single freshly dissociated myocytes were studied in the whole-cell configuration of patch-clamping^9. […]

With CCN(CC)CC(=O)Nc1c(C)cccc1C [lidocaine] the “tail ICa after recovery from lidocaine relative to control” value was 86%.
